In patent US20040224922A1, “Use of charged dextran as a mucoactive agent and methods and pharmaceutical compositions relating thereto” (priority 1999, published 2004):

Test: Osmotic pressure of DexSO4 solutions by vapor pressure osmometer
Format: physicochemical

Substance: Dextran sulfate, sodium salt [DexSO4]
- excess osmolarity over Ringer's (6.5 mg/ml DexSO4 in Ringer solution): 15 mOsm
- excess osmolarity over Ringer's (20 mg/ml DexSO4 in Ringer solution): 45 mOsm
- excess osmolarity over Ringer's (65 mg/ml DexSO4 in Ringer solution): 141 mOsm
